Test [1] relates to Gal4–VP16. Description: Gal4-VP16 control experiment (reporter gene assay, HEK293T cells). It is filed as cell-based. Conditions: 50 µM; mean ± SD. A general note: A reporter such as luciferase makes a cellular process visible.
The target of test [2] is T1, recombinant HNF4α LBD protein (Homo sapiens, UniProt P41235).
T1 construct: The LDB domain of HNF4α (aa. 148–377) subcloned into pNIC28-Bsa4; His6 (N); made in house; host or cells: E. coli Rosetta
T1 sequence (P41235 148-377): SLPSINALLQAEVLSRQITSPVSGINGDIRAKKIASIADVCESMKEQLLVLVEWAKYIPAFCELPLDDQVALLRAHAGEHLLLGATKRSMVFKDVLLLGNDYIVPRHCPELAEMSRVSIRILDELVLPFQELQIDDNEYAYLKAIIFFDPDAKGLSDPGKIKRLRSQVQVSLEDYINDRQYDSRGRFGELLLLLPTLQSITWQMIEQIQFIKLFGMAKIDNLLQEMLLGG
Description: Isothermal titration calorimetry (ITC). The conditions noted are these: 25 °C, protein 10–20 µM titrated with ligand 50–200 µM. It is filed as binding. In general terms: Isothermal titration calorimetry measures the heat released or taken up as one component is titrated into another.

For test [3], the target named is T2, Gal4-HNF4α (human HNF4α LBD) (Homo sapiens, UniProt P41235).
T2 sequence (P41235 142-377): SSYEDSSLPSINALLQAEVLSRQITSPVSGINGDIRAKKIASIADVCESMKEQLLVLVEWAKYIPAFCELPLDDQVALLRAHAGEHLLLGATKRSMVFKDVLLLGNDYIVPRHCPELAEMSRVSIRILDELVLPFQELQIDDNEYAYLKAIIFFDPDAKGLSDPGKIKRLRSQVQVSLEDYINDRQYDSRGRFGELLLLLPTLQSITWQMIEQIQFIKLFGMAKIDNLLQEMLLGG
Kind of test: Hybrid Gal4-HNF4α reporter gene assay in transiently transfected HEK293T cells.

Structures are written as SMILES. “Also recorded” adds a separate entry of the source.

Take `O=C(Nc1ccccc1Cl)c1ccccc1O` [compound 4, Oc1ccccc1C(=O)Nc1ccccc1Cl]: in test [1], the “VP16 Control (fold activation of reporter activity)” value is listed as 0.5 ± 0.2 (50 µM) fold activation. Besides, in test [2], the “HNF4α LBD Binding (Kd)” value is “very weak HNF4α binding; also recorded: no/weak binding”. Besides, in test [3], the midpoint of the response, the EC50, lay at 15 µM; the “Follow-up HNF4α (fold activation of reporter activity)” value is on record as 4 ± 2 (50 µM) fold activation; the “HNF4α Ligand Type” value was “Agonist”; the “HNF4α vs. VP16 (p, t-test)” value is “p = 0.0014 (**)”. Also, the “Primary Screen (Fold Act., 50 µM)” value in test [3] is 5.18 fold activation.

As usually defined, the EC50 is the concentration at which the effect is half-maximal. High values mean lower potency in that assay, low ones higher potency in that assay.

The record behind these values is publication PMC7660650, “Chemical Starting Matter for HNF4α Ligand Discovery and Chemogenomics” (International Journal of Molecular Sciences, 2020).
